Compound activity from PubChem.
A selection: hits, their analogues and other compounds. The true share with any hit is near 3.7%.
Nrf2 block – blocks Nrf2 signaling; A549 ARE-Fluc reporter, luciferase luminescence, 18-24 h; Potency, µM (doses to about 46 µM), actives largely listed as inhibitors; AID 504444; actives 2.1% (n = 360,000); note: nearly all actives have a fitted effect of over 60% in size
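Cells were seeded and rested 2 h, then exposed to compounds for 18-24 h. CellTiter-Fluor was read first as a viability measure. BugLite was added 15 min before the final luminescent read of ARE-luciferase activity in A549 cells.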
IL-2 act – activators of IL-2 | IL-2 activation reporter assay, cell-based qHTS; stimulated with anti-CD3/CD4/CD28 beads; in transgenic mouse T cells | activation, % (series mostly up to about 46 µM) | actives 0.065% (n = 360,000) | AID 652025; in the data active = activation above about 50%; inconclusive = mostly about 30% to 49%
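Using fluorescent plate cytometry, EGFP and DsRed are detected in transgenic mouse T cells stimulated 18 h at 37 degrees C with antibody-coated beads after 60 min compound pretreatment.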
Nrf2 activator – activates Nrf2 signaling; AREc32 ARE-luciferase reporter (MCF7-derived line), luminescence, 24 h; Potency, µM (doses to about 46.1 µM), usual class: activators; actives 0.31% (n = 410,000); note: nearly all actives have a fitted effect of over 65% in size
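ARE-driven firefly luciferase activity in AREc32 cells measured after a 24 hr compound exposure at 37 deg C, using Steady-Glo reagent and a 30 min room-temperature hold.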
A549 viability – kills or reduces viability of A549 cells in Nrf2 counter-screen | A549 ARE-Fluc cells, CellTiter-Fluor viability, 18-24 h | Potency, µM (highest dose often 46 µM), most hits filed as inhibitors | AID 504648 | actives 0.16% (n = 390,000)
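A549 ARE-Fluc cells in 5% FBS OPTI-MEM, 5000 cells/well, rested 2 h then exposed to compounds in concentration-response for 18-24 h at 37 °C. Viability by CellTiter-Fluor fluorescence (Ex 405/Em 525) after 30 min; luciferase luminescence (BugLite, 15 min, RT) read afterwards.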
miR-21 FLuc – raises the signal of a miR-21 reporter | HeLa miR-21 FLuc reporter, luciferase, 48 h | Potency, µM (doses to about 38.3 µM) | 340,000 tested, under 10 active | AID 2288; active = well fitted rising curve with a large enough effect; inconclusive = small, poorly fitted or top-dose-only effect; inactive = no such curve, though single readings can be large or run the other way;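 note: miR-21 action dims this reporter so a rising signal means less miR-21 action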
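Using DMEM plus 10% FBS, HeLa miR-21-FLuc cells are incubated with test compounds (final up to about 40uM) for 48 hours; firefly luciferase signal is then imaged following reagent-mediated lysis.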
ClpP mod – qHTS Assay for Activators of ClpP. ATP-dependent Clp protease proteolytic subunit (Bacillus subtilis (strain 168)), P80244. Potency, µM (series often up to 57.5 µM). AID 651965, 2013. actives 1.9% (n = 340,000). purified B. subtilis ClpP, FRET peptide cleavage, 20 min; active = well fitted falling curve with a large enough effect; inconclusive = small, poorly fitted or top-dose-only effect; inactive = no such curve, though single readings can be large or run the other way; note: the source files actives as falling curves though it sought activators and does not explain the sign; nearly all actives have a fitted effect of over 65% in size
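Buffer: 100 mM Tris/HCl pH8, 100 mM KCl, 0.05% low protease BSA, 2.5% glycerol, 0.01% Tween-20. ClpP 10 microg/mL final; 20 min RT; delta FRET normalized to ADEP and DMSO controls.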
Numbers stand for hits; i = inactive; ? = inconclusive; nt = not tested or not shown; ! = a repeat was not active; [ ] = remark or other dose. Unless noted, calls come from the whole dose curve; as a rule, active = well fitted curve in the direction sought with a large enough effect; inconclusive = small, poorly fitted or top-dose-only effect, or another doubt; inactive = no such curve, though single readings can be large; an effect the other way counts as inactive or inconclusive.

Chains of the proteins cited; added tags and fusions are not shown.
ATP-dependent Clp protease proteolytic subunit (Bacillus subtilis (strain 168)), P80244, UniProt P80244, whole entry, looked up: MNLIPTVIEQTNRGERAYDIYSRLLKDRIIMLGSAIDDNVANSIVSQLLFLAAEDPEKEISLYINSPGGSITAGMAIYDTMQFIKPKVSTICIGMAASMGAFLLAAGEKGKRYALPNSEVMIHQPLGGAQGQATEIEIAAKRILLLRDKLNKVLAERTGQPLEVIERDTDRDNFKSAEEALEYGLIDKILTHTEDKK

SMILES	Nrf2 block	IL-2 act	Nrf2 activator	A549 viability	miR-21 FLuc	ClpP mod
CCC(C)Sc1ccc(-c2nc3ccc(C)cn3c2NCc2ccccc2)cc1OC (stereo not drawn)	?	i	i	?	nt	i
CCC(C)Sc1ccc(-c2nc3ccc(C)cn3c2NC2CCCCC2)cc1 (stereo not drawn)	i	i	i	i	nt	i
CCCCNc1c(-c2ccc(OC)c(SC3CCCCC3)c2)nc2ccc(C)cn12	18µM	i	i	?	nt	?
CCCCNc1c(-c2ccc(SC3CCCCC3)c(OC)c2)nc2ccc(C)cn12	?	i	i	?	nt	i
CCC(C)Sc1cccc(-c2nc3ccc(C)cn3c2NC2CCCCC2)c1 (stereo not drawn)	?	i	i	i	nt	16µM!
COc1ccc(-c2nc3ccccn3c2NCc2ccc3c(c2)OCO3)cc1	i	i	i	i	i	?
Cc1nc2ccccc2nc1-c1csc(-c2ccccc2)n1	nt	nt	nt	nt	nt	i
CCCCNc1c(-c2ccc(OC)c(SC(C)CC)c2)nc2ccc(C)cn12 (stereo not drawn)	?	i	i	?	nt	i
COc1ccc(-c2nc3cc(C)ccn3c2NCc2ccc3c(c2)OCO3)cc1	i	i	i	?	i	28µM
CCCCNc1c(-c2ccc(OC)c(SC(C)CC)c2)nc2cc(C)ccn12 (stereo not drawn)	?	i	i	?	nt	27µM!
Cc1cccc(Nc2nc(-c3ccccc3)c3cc(C)ccc3n2)c1	i	nt	i	i	i	i
COc1cc(OC)c(NC(=O)c2cc3c(=O)oc4ccc(C)cc4c3s2)cc1Cl	i	nt	i	i	i	i
O=C(C1CCC(CNS(=O)(=O)c2cccc3nsnc23)CC1)N1CC=C(c2ccccc2)CC1 (stereo not drawn)	21µM	i	i	i	i	i
Cc1ccc(NS(=O)(=O)c2cc3c(cc2-c2cn[nH]c2)NC(=O)CO3)cc1C	i	nt	nt	i	nt	nt
Cc1c(C(=O)Nc2ccc(Br)cc2F)oc2ccc(S(=O)(=O)N3CCCCC3)cc12	nt	nt	i	i	i	i
Cc1ccc(NC(=O)c2oc3ccc(S(=O)(=O)N(C)C4CCCCC4)cc3c2C)cc1Cl	nt	nt	i	i	i	?
COc1ccc(-n2c(SCC(=O)N/N=C(\C)c3cccnc3)nc3ccccc3c2=O)cc1	i	i	i	i	i	32µM
Cc1nn(-c2ccccc2)c(C)c1/C=N/NC(=O)CSc1nc2ccccc2c(=O)n1-c1ccc(Br)cc1	26µM	i	i	18µM	i	i
COc1ccc(-n2c(SCC(=O)N/N=C/c3ccccc3OCC(=O)O)nc3ccccc3c2=O)cc1	i	i	i	i	i	i
Cc1ccc(-n2c(SCC(=O)N/N=C/c3c(C)nn(-c4ccccc4)c3C)nc3ccccc3c2=O)cc1	?	i	i	8.2µM	i	i
O=C(NCC1CCCO1)C(c1ccncc1)N(Cc1cccs1)C(=O)Cn1nnc(-c2ccc(F)cc2)n1 (stereo not drawn)	?	i	i	i	i	nt
Cc1ccc(-c2nnn(CC(=O)N(Cc3cccs3)C(C(=O)NC3CCCC3)c3ccncc3)n2)cc1 (stereo not drawn)	6.5µM	i	i	i	i	i
Cc1nc2c(c(=O)c3ccccc3n2C)c(=O)n1-c1ccc(F)cc1	i	i	i	i	i	i
CC(C)c1nc2c(c(=O)c3ccccc3n2C)c(=O)n1-c1ccc(F)cc1	i	i	i	i	i	28µM
CC(=O)Nc1ccc(/C=C/c2ccncc2)cc1	nt	nt	nt	nt	nt	i
SMILES	Nrf2 block	IL-2 act	Nrf2 activator	A549 viability	miR-21 FLuc	ClpP mod
CCCCN(CC)CCNc1ncnc2onc(-c3ccc(Cl)cc3)c12	i	nt	i	i	i	i
O=S1(=O)C=C(Sc2nc3ccccc3s2)c2ccccc21	18µM	i	i	23µM	?	i
O=C(O)CSc1nc2ccc(Cl)cc2[nH]1	nt	i	i	i	i	25µM
COc1ccc(C(=O)Nc2nnc(SCc3cc(=O)c4cc(C)ccc4[nH]3)s2)cc1OC	nt	nt	i	i	i	i
CNC(=O)/C(C#N)=C/c1c(N(Cc2ccccc2)Cc2ccccc2)nc2ccccn2c1=O	?	i	i	23µM	i	i
COC(=O)/C(C#N)=C/c1c(N2CCN(c3ccccc3)CC2)nc2ccccn2c1=O	i	i	i	i	i	nt
O=C(NC1CCCc2ccccc21)c1ccc2c(c1)sc1nc(-c3ccccc3)cn12 (stereo not drawn)	i	nt	i	i	i	?
CCN(CC)c1ccc2c(O)cc(=O)oc2c1	i	i	i	i	i	nt
CCN(CC)c1ccc(C(=O)OCc2cc(=O)oc3cc(O)ccc23)cc1	?	i	i	i	i	32µM
O=C1CCc2cc(S(=O)(=O)Nc3cccnc3)ccc2N1	i	nt	nt	i	nt	nt
Cc1sc(NC(=O)CSc2ncn(-c3ccccc3)n2)nc1-c1ccccc1	12µM	i	i	i	i	i
O=c1c2[nH]c3ccsc3c2cnn1Cc1ccccc1F	i	nt	nt	i	nt	nt
c1ccc(-c2nc(NC3CCCC3)c3ccccc3n2)cc1	23µM	i	i	?	i	i
COc1cccc(-c2nc(NC3CCCC3)c3ccccc3n2)c1O	?	i	i	?	i	i
COC(=O)C(=C/C(C)=C/c1cccs1)C(=O)OC	i	i	14µM	i	i	nt
COc1ccc(Cn2c(N)c(S(=O)(=O)c3cccs3)c3nc4ccccc4nc32)cc1	?	i	i	i	i	8.9µM
Cc1ccc(Cn2c(N)c(S(=O)(=O)c3cccs3)c3nc4ccccc4nc32)cc1	i	i	i	i	i	3.2µM
Nc1c(S(=O)(=O)c2cccs2)c2nc3ccccc3nc2n1Cc1ccccc1	?	i	i	i	i	35µM
CC(C)Cn1c(/C=C/c2ccccc2)nc2ccccc21	?	i	i	i	i	7.1µM
CCCCCCn1c(/C=C/c2ccccc2)nc2ccccc21	?	nt	i	i	i	i
CCC(C)n1c(/C=C/c2ccccc2)nc2ccccc21 (stereo not drawn)	i	i	i	i	i	i
CCn1c(/C=C/c2ccccc2)nc2ccccc21	?	i	i	i[1.84 µM]	i	14µM
CC[N+]1(CC(=O)c2cccs2)CCCCC1	nt	nt	nt	nt	nt	i
COc1ccc(OC)c(CNC(=O)CN2CC(C)Sc3ccccc32)c1 (stereo not drawn)	nt	nt	i	i	i	i
OC(C1=C/C(=C\c2ccncc2)c2ccccc21)c1ccncc1 (stereo not drawn)	nt	nt	nt	nt	nt	i
CC(C)n1ncc2c(C(=O)Nc3cccc(C#N)c3)cc(C3CC3)nc21	?	i	i	?	nt	i
CC(C)n1ncc2c(C(=O)NCCc3ccc(S(N)(=O)=O)cc3)cc(C3CC3)nc21	i	i	i	i	nt	32µM
